{
  "sequences": {"note": "Protein sequences, listed by entry. Tags and fused reporters are not part of them. Residues count along the entry.", "UniProt P00742, 41-179 limits assumed": "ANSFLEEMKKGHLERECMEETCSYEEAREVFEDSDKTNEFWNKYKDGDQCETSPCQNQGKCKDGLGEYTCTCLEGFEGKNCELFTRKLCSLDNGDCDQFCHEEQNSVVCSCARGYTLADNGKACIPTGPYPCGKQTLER", "UniProt P00742, 235-488 limits assumed": "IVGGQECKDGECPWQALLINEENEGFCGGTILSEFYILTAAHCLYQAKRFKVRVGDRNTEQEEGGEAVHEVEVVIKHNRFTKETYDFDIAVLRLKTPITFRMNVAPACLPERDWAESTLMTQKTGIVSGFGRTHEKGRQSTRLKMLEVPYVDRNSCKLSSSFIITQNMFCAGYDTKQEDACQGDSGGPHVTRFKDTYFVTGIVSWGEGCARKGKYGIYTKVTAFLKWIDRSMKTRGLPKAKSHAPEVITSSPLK"},
  "source": "ChEMBL document CHEMBL1134564",
  "about": "“Development of serine protease inhibitors displaying a multicentered short (<2.3 A) hydrogen bond binding mode: inhibitors of urokinase-type plasminogen activator and factor Xa” (J Med Chem, 2001)",
  "molecular_target": "Coagulation factor X (Homo sapiens, UniProt P00742)",
  "experiment": "Binding affinity against human coagulation factor X",
  "data": [
    {"compound": "N=C(N)c1ccc2nc(-c3cccc(-c4ccccc4)c3O)[nH]c2c1", "values": [
      {"measurement": "Ki", "value": 2.1, "unit": "µM"}
    ]}
  ]
}
